Data published in US7700657B2, “Vitamin D analogs” (Galderma Research & Development, priority 2001, dated 2010).

Protein sequences, listed by entry. Tags and fused reporters are not part of them.
UniProt P11473, whole entry: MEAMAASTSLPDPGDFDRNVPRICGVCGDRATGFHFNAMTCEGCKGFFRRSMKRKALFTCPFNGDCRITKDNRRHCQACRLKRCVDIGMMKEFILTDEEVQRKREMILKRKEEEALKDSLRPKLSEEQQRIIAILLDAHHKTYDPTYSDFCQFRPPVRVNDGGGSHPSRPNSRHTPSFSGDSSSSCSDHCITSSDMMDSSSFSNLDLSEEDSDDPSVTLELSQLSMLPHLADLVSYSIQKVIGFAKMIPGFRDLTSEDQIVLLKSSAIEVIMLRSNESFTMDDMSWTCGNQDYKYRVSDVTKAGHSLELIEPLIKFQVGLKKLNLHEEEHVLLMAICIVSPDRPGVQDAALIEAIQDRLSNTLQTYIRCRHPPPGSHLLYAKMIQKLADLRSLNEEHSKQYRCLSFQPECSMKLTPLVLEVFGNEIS

How the values were obtained:
human VDR receptor = human VDR receptor (Homo sapiens, UniProt P11473); assay: Transactivation potential: VDR agonist activity, HeLa cotransfection with p240Hase-CAT reporter; conditions: dose giving 50% of maximum activity, HeLa cells, 18 hours treatment
From the text: By way of example, the VDR agonist activity can be tested on the HeLa cell line by cotransfection of an expression vector for the human VDR receptor and of the reporter plasmid p240Hase-CAT. The agonist activity can be characterized in this cotransfection system by the determination of the dose necessary to obtain 50% of the maximum activity of the product (AC50). The detail of the protocol of this test as well as the results obtained with the compounds according to the invention are described in example 7 of the present application.
The VDR agonist activity can be tested on the HeLa cell line, by cotransfection of an expression vector of the human VDR receptor and of the p240Hase-CAT reporter plasmid which contains the region −1399 to +76 of the rat 24-hydroxylase promoter, cloned upstream of the phase coding for the chloramphenicol acetyltransferase (CAT) gene. 18 hours after cotransfection, the test product is added to the medium. After treatment for 18 hours, the measurement of the CAT activity of the cell lysates is carried out by means of an Elisa test (Enzyme Linked Immuno Sorbent Essay, test marketed by Roche Molecular Biochemicals). The agonist activity can be characterized in this cotransfection system by the determination of the dose necessary in order to obtain 50% of the maximum activity of the product (AC50).

[1] = system: normal human keratinocytes; assay: Inhibition of proliferation of normal human keratinocytes (BrdU incorporation); conditions: read-out: INHIBITION OF PROLIFERATION IC50, 5 days culture
Experimental: The biological properties analogous to vitamin D can likewise be measured by the capacity of the product to inhibit the proliferation of normal human keratinocytes (NHK in culture). The product is added to NHK cultured under conditions favoring the proliferative state. The product is left in contact with the cells for five days. The number of proliferative cells is measured by incorporation of bromodeoxyuridine (BRdU) into the DNA. The protocol of this test as well as the results obtained with the compounds according to the invention are described in example 8 of the present application.
It is known that 1,25-dihydroxyvitamin D3, called calcitriol and corresponding to natural vitamin D, inhibits the proliferation of human keratinocytes in culture. The method used is the following: the normal human keratinocytes are inoculated at low density into a 24-well plate. After 4 hours, the compounds to be tested are added to the culture medium. After culturing for 5 days, the proliferation of the keratinocytes is determined by incorporation of 5-bromo-2′ deoxyuridine (BrdU) in the DNA. The quantity of BrdU incorporated is then quantified by using the Elisa test (Enzyme Linked Immuno Sorbent Essay, test marketed by Roche Molecular Biochemicals). […]

[2] = system: HL60 promyelocytic leukemia cells; assay: Induction of differentiation of HL60 cells (NBT reduction); conditions: read-out: Activation of Differentiation AC 50, 4 days culture, NBT-positive cells
From the text: The biological properties analogous to vitamin D can likewise be measured by the capacity of the product to induce the differentiation of HL60 promyelocytic leukemia cells. The protocol of this test as well as the results obtained with the compounds according to the invention are described in example 9 of the present application.
Calcitriol induces the differentiation of promyelocytic leukemia cells (HL60) in monocytes/macrophages. This differentiation inductor effect is a well-characterized marker of cellular vitamin D activity. One of the most important antimicrobial products of macrophages is hydrogen peroxide, which can be analyzed experimentally by the reduction of NBT (Nitroblue Tetrazolium).
The method used is the following: The HL60 cells are inoculated into 6-well plates and then treated immediately with the compounds to be tested. After 4 days in culture, the cells are incubated with phorbol TPA ester and NBT for a short period and the differentiated cells, i.e., positive to NBT, are counted.

Row | Compound | AC50 (human VDR receptor) | IC50 [1] | AC50 [2]
1 | CC/C(=C\C=C\C(O)(CC)CC)c1cc(OCc2ccc(CO)c(CO)c2)ccc1C | 79 nM | 99 nM | 
2 | C/C(=C\C=C\C(C)(C)O)c1cccc(CCc2ccc(CO)c(CO)c2)c1 | 319 nM | 1510 nM | 
3 | CCC(O)(/C=C/C=C(\C)c1cccc(CCc2ccc(CO)c(CO)c2)c1)CC | 124 nM |  | 310 nM
4 | CCC(O)(C#C/C=C(\C)c1cccc(OCc2ccc(CO)c(CO)c2)c1)CC | 746 nM |  | 
